Laboratory results from ChEMBL document CHEMBL1148806, “Nitric oxide donor beta2-agonists: furoxan derivatives containing the fenoterol moiety and related furazans” (J Med Chem, 2007).

Protein sequences, listed by entry. Tags and fused reporters are not part of them.
UniProt P10608, whole entry, looked up: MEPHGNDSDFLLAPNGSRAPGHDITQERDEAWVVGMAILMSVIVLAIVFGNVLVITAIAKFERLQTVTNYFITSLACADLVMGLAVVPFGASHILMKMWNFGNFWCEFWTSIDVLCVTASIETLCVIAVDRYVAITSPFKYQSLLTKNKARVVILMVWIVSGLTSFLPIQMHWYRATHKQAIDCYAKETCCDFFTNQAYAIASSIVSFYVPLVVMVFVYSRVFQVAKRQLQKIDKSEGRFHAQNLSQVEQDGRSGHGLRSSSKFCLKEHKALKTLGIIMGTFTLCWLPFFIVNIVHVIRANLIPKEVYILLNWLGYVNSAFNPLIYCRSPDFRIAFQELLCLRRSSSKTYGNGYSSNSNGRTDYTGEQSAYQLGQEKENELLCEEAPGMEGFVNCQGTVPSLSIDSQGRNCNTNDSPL

Molecular target: Beta-2 adrenergic receptor (Rattus norvegicus) (UniProt P10608)
Test: Vasodilating activity against phenylephrine-induced contractions in rat thoracic aorta
Type: functional, tissue-based

CC(Cc1ccc(O)cc1)NCC(O)c1cc(O)cc(O)c1 (stereo unspecified)
Activity: inactive

The source made the active and inactive calls. The calls are words filed in the database; no cut-off is given here.
